{
  "sequences": {"note": "Protein sequences, listed by entry. Tags and fused reporters are not part of them.", "UniProt P32245, whole entry": "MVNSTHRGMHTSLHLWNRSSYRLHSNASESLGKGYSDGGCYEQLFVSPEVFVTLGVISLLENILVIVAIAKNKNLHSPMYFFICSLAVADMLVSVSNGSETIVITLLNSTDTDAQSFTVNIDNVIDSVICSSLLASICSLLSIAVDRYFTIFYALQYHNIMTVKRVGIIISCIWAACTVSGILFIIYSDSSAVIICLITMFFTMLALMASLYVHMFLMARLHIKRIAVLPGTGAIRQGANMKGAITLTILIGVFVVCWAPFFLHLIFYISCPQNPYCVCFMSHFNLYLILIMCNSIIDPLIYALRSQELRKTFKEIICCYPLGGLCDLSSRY"},
  "source": "patent US20030143670A1",
  "about": "“DNA encoding SNORF44 receptor” (priority 1999, published 2003)",
  "origin": "cited, not measured here",
  "biological_target": "MC4 (Homo sapiens, UniProt P32245)",
  "details": "Schioth et al., 1996; cited from earlier work",
  "data": [
    {"substance": "gamma melanocortin [γ-MSH]", "values": [
      {"measurement": "agonist activity at recombinant MC4 receptor", "value": "agonist"}
    ]}
  ]
}
